Test results from ChEMBL document CHEMBL4715803, “Synthetic Studies of Neoclerodane Diterpenes from Salvia divinorum: Identification of a Potent and Centrally Acting μ Opioid Analgesic with Reduced Abuse Liability” (J Med Chem, 2016).

Experiments:
[1] = species on record: Homo sapiens; experiment: Selectivity ratio of EC50 for agonist activity at human delta opiod receptor expressed in CHO-K1 cells to EC50 for agonist activity at human mu opiod receptor expressed in CHO-K1 cells; type: cell-based
[2] = species on record: Homo sapiens; experiment: Selectivity ratio of EC50 for agonist activity at human kappa opiod receptor expressed in CHO-K1 cells to EC50 for agonist activity at human mu opiod receptor expressed in CHO-K1 cells; type: cell-based

With `COC(=O)[C@@H]1C=C(OC(=O)c2ccccc2F)C(=O)[C@H]2[C@@]1(C)CC[C@H]1C(=O)O[C@H](c3ccoc3)C[C@]21C` the Ratio EC50 [1] was 37 and the Ratio EC50 [2] was 33.
`COC(=O)[C@@H]1C=C(OC(=O)c2ccc(F)cc2)C(=O)[C@H]2[C@@]1(C)CC[C@H]1C(=O)O[C@H](c3ccoc3)C[C@]21C` was tested, and the Ratio EC50 [1] was 23 and the Ratio EC50 [2] was 17.
Molecule `COC(=O)[C@@H]1C=C(OC(=O)c2ccc(OC)cc2)C(=O)[C@H]2[C@@]1(C)CC[C@H]1C(=O)O[C@H](c3ccoc3)C[C@]21C` has a Ratio EC50 [1] of 15 and a Ratio EC50 [2] of over 1200.
With `COC(=O)[C@@H]1C=C(OC(=O)c2ccc(Cl)cc2)C(=O)[C@H]2[C@@]1(C)CC[C@H]1C(=O)O[C@H](c3ccoc3)C[C@]21C` the Ratio EC50 [1] was 10.
`COC(=O)[C@@H]1C=C(OC(=O)c2ccc(C)cc2)C(=O)[C@H]2[C@@]1(C)CC[C@H]1C(=O)O[C@H](c3ccoc3)C[C@]21C` was tested, and the Ratio EC50 [1] was 17.
`CC(=O)O[C@@H]1C=C(OC(=O)c2cccc(F)c2)C(=O)[C@H]2[C@@]1(C)CC[C@H]1C(=O)O[C@H](c3ccoc3)C[C@]21C` showed a Ratio EC50 [1] of 30 and a Ratio EC50 [2] of over 2000.
In the case of `COC(=O)[C@@H]1C=C(OC(=O)c2ccc([N+](=O)[O-])cc2)C(=O)[C@H]2[C@@]1(C)CC[C@H]1C(=O)O[C@H](c3ccoc3)C[C@]21C`, the Ratio EC50 [1] is reported as 25.
For `COC(=O)[C@@H]1C=C(OC(=O)c2cccc(OC)c2)C(=O)[C@H]2[C@@]1(C)CC[C@H]1C(=O)O[C@H](c3ccoc3)C[C@]21C`, the Ratio EC50 [1] was 56.
